Results on one compound are retold here after patent US20080207718A1, “Use of Fused Imidazole Derivatives to Mediate Ccr3 Related Conditions” (priority 2005, published 2008).

The chains behind the UniProt entries cited, without tags or fusion partners.
UniProt P51677, whole entry: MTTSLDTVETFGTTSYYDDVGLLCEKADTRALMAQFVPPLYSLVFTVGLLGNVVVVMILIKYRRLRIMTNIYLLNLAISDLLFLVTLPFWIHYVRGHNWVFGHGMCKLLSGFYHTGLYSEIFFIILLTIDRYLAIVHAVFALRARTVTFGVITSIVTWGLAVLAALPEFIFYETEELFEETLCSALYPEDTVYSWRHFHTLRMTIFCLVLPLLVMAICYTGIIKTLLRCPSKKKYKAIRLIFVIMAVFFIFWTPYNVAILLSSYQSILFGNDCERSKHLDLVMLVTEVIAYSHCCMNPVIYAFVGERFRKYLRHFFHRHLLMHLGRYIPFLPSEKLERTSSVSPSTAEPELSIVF

The experiment deals with human CCR-3 (Homo sapiens, UniProt P51677). As to the kind of experiment: binding of [125I]-human eotaxin to human CCR3 (SPA, membranes of RBL-2H3 cells expressing CCR3). The conditions noted are these: read-out: IC50 value (inhibition of eotaxin binding to CCR3), 4 hours at room temperature. As to the method: In this assay the effect of the compounds of the present invention on the binding of human eotaxin to human CCR-3 is determined. Recombinant cells expressing human CCR3 are captured by wheatgerm agglutinin (WGA) polyvinyltoluidene (PVT) SPA beads (available from Amersham), through a specific interaction between the WGA and carbohydrate residues of glycoproteins on the surface of the cells. [^125I]-human eotaxin (available from Amersham) binds specifically to CCR3 receptors bringing the [^125I]-human eotaxin in close proximity to the SPA beads. Emitted […] from the [^125I]-human eotaxin excite, by its proximity, the fluorophore in the beads and produce light.
Preparation of Assay Buffer: 5.96 g HEPES and 7.0 g sodium chloride are dissolved in distilled H2O and 1M aqueous CaCl2 (1 ml) and 1M aqueous MgCl2 (5 ml) are added. The pH is adjusted to 7.6 with NaOH and the solution made to a final volume of 1 L using distilled H2O. 5 g of bovine serum albumin and 0.1 g NaN3 are dissolved in the solution and the resulting buffer stored at 4° C. […]
The assay is performed in a final volume of 250 μl per well of an Optiplate™ microplate (ex Canberra Packard). […] The resulting scintillations are counted using a Canberra Packard TopCount™ scintillation counter, each well being counted for 1 minute. […]

On to `CCOC(=O)c1ccc(NC(=O)C[n+]2cc(-c3ccc(Cl)cc3)n3c2CCC3)cc1`, for which the half-maximal inhibitory concentration (IC50) amounted to 6 nM.
